Assay results from ChEMBL document CHEMBL2407019.
Activity calls are given as the source filed them. No cut-off for these calls is given here.

Test system: Hippocampus
Test: Neuroprotective activity in Sprague-Dawley rat hippocampal slice assessed as reversal of DFP-induced damage at 10 uM measured after 2 hrs by electrophysiological assay

SMILES: CO[C@@]1(C)/C=C/[C@H](C(C)C)CC/C(C)=C\CC/C(C)=C\[C@H](O)C1
- Activity: inactive
